The values below are quoted from earlier work in paper PMC4293901.

For this series, the target named is megalin (UniProt P98164).

The Kd is the constant that tells how readily two partners part at equilibrium. On to transthyretin (from UniProt P02766), for which the Kd is 500 nM.
